# scFv variants of Ab-14 (heavy chain) against a SARS-CoV-2 spike peptide

Target: peptide PDVDLGDISGINAS, taken from heptad repeat 2 (HR2) of SARS-CoV-2 spike.

The variants keep the light chain, the linker and the frameworks of Ab-14 (scFv order VH, a (GGGGS)3 linker, VL).
VH: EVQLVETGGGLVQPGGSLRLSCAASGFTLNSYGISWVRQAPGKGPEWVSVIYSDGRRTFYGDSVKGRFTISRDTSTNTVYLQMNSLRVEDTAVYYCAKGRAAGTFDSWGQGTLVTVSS
VL: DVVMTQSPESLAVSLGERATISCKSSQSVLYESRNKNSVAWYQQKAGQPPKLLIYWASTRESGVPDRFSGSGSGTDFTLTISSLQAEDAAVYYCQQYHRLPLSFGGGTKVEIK

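The parent was found by panning a naive human phage display library on the peptide. The library (AAYL49) carries one to three amino acid substitutions per variant, with no insertions or deletions. The assay is AlphaSeq: two haploid yeast populations carry antibody and antigen on their surface. After mating in shaken culture at 30 °C for 16 h, diploids were selected and their barcode pairs sequenced. Read counts were normalised to the haploid input and turned into Kd by a linear fit to BCL2-family pairs of known affinity, for each replicate. Mating was done three times.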

Each variant is given by its three heavy chain CDRs, as the data file delimits them; those of the parent are GFTLNSYGIS, VIYSDGRRTFYGDSVK, GRAAGTFDS. Affinities are written as log10 Kd with Kd in nM; a lower number is a better binder. "n.d." means that the variant was in the library but no mating with the target was seen in that replicate; the authors take this as a sign of poor binding, and no number exists. As a blank, each scFv also met three strains without target: over library AAYL49, 15% of these pairings were detected, typically at 4.06 and seldom below 2.83. The control count says in how many pairings with the empty strains this scFv gave a signal, with their mean in brackets.

{"CDR-H1": "GFTLESYGIS", "CDR-H2": "VIYSDGRRTFYGDSVI", "CDR-H3": "GRAAGTFDR", "replicates, log10 nM": "n.d. n.d. n.d.", "control signals": "0/9"}
{"CDR-H1": "GFTLNCYGIS", "CDR-H2": "VIYSDRRRTFYGDSVK", "CDR-H3": "GRAAGTTDS", "replicates, log10 nM": "n.d. n.d. n.d.", "control signals": "0/9"}
{"CDR-H1": "FFTLDSYGIS", "CDR-H2": "VIYSDGRRTFYGDSLK", "CDR-H3": "GRAAGTFDS", "replicates, log10 nM": "4.44 3.72 6.17", "control signals": "5/9 (4.44)"}
{"CDR-H1": "GVTLNSYLIS", "CDR-H2": "VIYSDGRRTFYGDSVK", "CDR-H3": "GRAAGTFDS", "replicates, log10 nM": "3.79 3.83 n.d.", "control signals": "2/9 (3.60)"}
{"CDR-H1": "GFTLNSYGNS", "CDR-H2": "VIYSDGRRTFYGDSVK", "CDR-H3": "GRAAGTSMS", "replicates, log10 nM": "n.d. n.d. n.d.", "control signals": "1/9 (4.24)"}
{"CDR-H1": "GFTLNSYGIS", "CDR-H2": "VIYYDGRRTFRGDSVK", "CDR-H3": "GAAAGTFDS", "replicates, log10 nM": "4.93 n.d. n.d.", "control signals": "4/9 (4.08)"}
{"CDR-H1": "GFTSNSYGIS", "CDR-H2": "VIYSDGRRTRYGDSVK", "CDR-H3": "GRAAGTFDS", "replicates, log10 nM": "n.d. n.d. n.d.", "control signals": "4/9 (3.90)"}
{"CDR-H1": "GFTLNSYGIS", "CDR-H2": "VIYVDKRRTVYGDSVK", "CDR-H3": "GRAAGTFDS", "replicates, log10 nM": "n.d. n.d. n.d.", "control signals": "0/9"}
{"CDR-H1": "GFTLYFYGIS", "CDR-H2": "VIYSDGRRTFDGDSVK", "CDR-H3": "GRAAGTFDS", "replicates, log10 nM": "n.d. n.d. n.d.", "control signals": "1/9 (3.93)"}
{"CDR-H1": "GFALNSYGIS", "CDR-H2": "VIYSDGCRTFYGDSVK", "CDR-H3": "GRACGTFDS", "replicates, log10 nM": "n.d. n.d. 3.82", "control signals": "0/9"}
{"CDR-H1": "GFTLNSYGIW", "CDR-H2": "VIYSDGRRTFFGDSPK", "CDR-H3": "GRAAGTFDS", "replicates, log10 nM": "n.d. n.d. n.d.", "control signals": "0/9"}
{"CDR-H1": "GFTLNSYGIS", "CDR-H2": "VIYSDGRTTFIGDSVK", "CDR-H3": "WRAAGTFDS", "replicates, log10 nM": "n.d. n.d. n.d.", "control signals": "0/9"}
{"CDR-H1": "GITLNSYGIS", "CDR-H2": "VIYSDGRRTFYGDSVK", "CDR-H3": "GRAAGTMDS", "replicates, log10 nM": "n.d. n.d. n.d.", "control signals": "3/9 (3.93)"}
{"CDR-H1": "GFQLNSYGIS", "CDR-H2": "VIYSDGRRMFYWDSVK", "CDR-H3": "GRAAGTFDS", "replicates, log10 nM": "n.d. n.d. n.d.", "control signals": "0/9"}
{"CDR-H1": "GFTLNSYGIS", "CDR-H2": "VIYSDGRRTFYGDSVK", "CDR-H3": "IRAANMFDS", "replicates, log10 nM": "3.10 2.72 2.45", "control signals": "1/9 (5.07)"}
{"CDR-H1": "GFTLNSYGIS", "CDR-H2": "VIYSDGTRTFFGDSVK", "CDR-H3": "GRAAFTFDS", "replicates, log10 nM": "1.65 1.65 2.21", "control signals": "0/9"}
{"CDR-H1": "GFILNSYGIH", "CDR-H2": "VIYSDGRRTFYGDSVK", "CDR-H3": "GAAAGTFDS", "replicates, log10 nM": "1.23 1.32 1.20", "control signals": "1/9 (3.64)"}
{"CDR-H1": "GTTLNSYGIS", "CDR-H2": "VIYSDGRRTFYGDSTK", "CDR-H3": "GRAAATFDS", "replicates, log10 nM": "n.d. n.d. n.d.", "control signals": "0/9"}
{"CDR-H1": "GFTLNSYGIS", "CDR-H2": "VIYSDGRRPFYGQSVK", "CDR-H3": "GRAAGKFDS", "replicates, log10 nM": "n.d. n.d. n.d.", "control signals": "1/9 (1.97)"}
{"CDR-H1": "GFTLNSYGIS", "CDR-H2": "VIYSDGRRTTYGDSVK", "CDR-H3": "GRAAGTFNS", "replicates, log10 nM": "n.d. n.d. n.d.", "control signals": "0/9"}
{"CDR-H1": "FFTLNSYGIS", "CDR-H2": "VIYSDGRRTEYGDSVK", "CDR-H3": "GRRAGTFDS", "replicates, log10 nM": "n.d. n.d. n.d.", "control signals": "0/9"}
{"CDR-H1": "GFTLNSYGIS", "CDR-H2": "VIYSDGRRTFYGDSVE", "CDR-H3": "GRSAGTFDK", "replicates, log10 nM": "n.d. n.d. n.d.", "control signals": "0/9"}
{"CDR-H1": "GFTLNSYGIS", "CDR-H2": "VIYSDGRRTFYKDSVK", "CDR-H3": "PRAAGTDDS", "replicates, log10 nM": "1.76 1.77 1.98", "control signals": "5/9 (4.46)"}
{"CDR-H1": "KFTLLSYGIS", "CDR-H2": "VIYSDGRRTFYGDSVK", "CDR-H3": "GRAAGTFDS", "replicates, log10 nM": "2.45 2.39 2.77", "control signals": "7/9 (5.33)"}
{"CDR-H1": "GFALNSYGRS", "CDR-H2": "VIYSDGRRTFYGDSVK", "CDR-H3": "GRAAGTFDS", "replicates, log10 nM": "n.d. n.d. n.d.", "control signals": "1/9 (2.98)"}

Top 3 of the variants detected in all replicates, tightest first:

{"CDR-H1": "GFILNSYGIH", "CDR-H2": "VIYSDGRRTFYGDSVK", "CDR-H3": "GAAAGTFDS", "replicates, log10 nM": "1.23 1.32 1.20", "control signals": "1/9 (3.64)"}
{"CDR-H1": "GFTLNSYGIS", "CDR-H2": "VIYSDGTRTFFGDSVK", "CDR-H3": "GRAAFTFDS", "replicates, log10 nM": "1.65 1.65 2.21", "control signals": "0/9"}
{"CDR-H1": "GFTLNSYGIS", "CDR-H2": "VIYSDGRRTFYKDSVK", "CDR-H3": "PRAAGTDDS", "replicates, log10 nM": "1.76 1.77 1.98", "control signals": "5/9 (4.46)"}

In this assay the parent's reference entry averaged 0.65; its copy inside this library read 4.11 (one replicate of three).

Reference: Engelhart et al. 2022, doi:10.1038/s41597-022-01779-4. File: FLAb, binding data.